For the experiment, the target named is Carbonic anhydrase 9 (Homo sapiens, UniProt Q16790). Briefly: Inhibition of human recombinant carbonic anhydrase 9 catalytic domain by stopped flow CO2 hydration method.

By Ki is commonly meant the equilibrium dissociation constant of an inhibitor or competing ligand from its target.

`COc1cc2c(cc1OC)C(c1ccccc1)N(S(N)(=O)=O)CC2` (stereo unspecified): the Ki came to 8.44 µM.

Source of the values: ChEMBL document CHEMBL1136887, “Synthesis and evaluation of pharmacological profile of 1-aryl-6,7-dimethoxy-3,4-dihydroisoquinoline-2(1H)-sulfonamides” (Bioorg Med Chem, 2009).
